Amino acid sequences for entries named in this document (tags omitted). A change or cut given only in a name is not applied to a line headed by its entry.
UniProt P28074: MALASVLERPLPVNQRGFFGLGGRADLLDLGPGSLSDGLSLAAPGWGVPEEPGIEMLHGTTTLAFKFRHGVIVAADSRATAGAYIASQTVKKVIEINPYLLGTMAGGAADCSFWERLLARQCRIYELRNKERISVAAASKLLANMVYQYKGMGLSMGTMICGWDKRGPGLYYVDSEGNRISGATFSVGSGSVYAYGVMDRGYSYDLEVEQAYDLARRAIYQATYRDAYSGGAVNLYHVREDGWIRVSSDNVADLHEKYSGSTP

In ChEMBL document CHEMBL4325885, “Design, synthesis, and biological evaluation of novel phenol ether derivatives as non-covalent proteasome inhibitors” (Eur J Med Chem, 2019):

Molecular target: Proteasome Macropain subunit MB1 (Homo sapiens, UniProt P28074)
Experiment: Potency index, ratio of PI-1840 IC50 to test compound IC50 for human chymotrypsin-like activity of 20S constitutive proteasome

Work on `CCCCc1ccc(OCC(=O)N(CC(=O)Nc2ccnnc2)C(C)C)cc1` yielded a Ratio IC50 of 2.
